In patent publication US20100297020A1, “PHOSPHORYLATED AND PHOSPHONATED PYRONE ANALOGS FOR THERAPEUTIC TREATMENT” (Limerick Biopharma, Inc., priority 2008, published 2010):

Test system: male Zucker Diabetic Fatty (ZDF) rats
Details: daily i.p.; rosiglitazone 6 mg/kg/day

SMILES: CN(CCOc1ccc(CC2SC(=O)NC2=O)cc1)c1ccccn1 (stereo not shown) [Rosiglitazone]
- body mass at the end of the 6 week study: over 550 grams
